Assay: Protraction after s.c. administration: plasma concentration in pigs determined by RIA
Type: in vivo
Details: 0.5 nmol/kg, healthy pigs, n=2
Description: The protraction of a number GLP-1 derivatives of the invention was determined by monitoring the concentration thereof in plasma after sc administration to healthy pigs, using the method described below. […]. The protraction of other GLP-1 derivatives of the invention can be determined in the same way.
Pigs (50% Duroc, 25% Yorkshire, 25% Danish Landrace, app 40 kg) were fasted from the beginning of the experiment. […]
The assay was carried out as follows: 100 µl plasma was mixed with 271 µl 96% ethanol, mixed using a vortex mixer and centrifuged at 2600*g for 30 min. […] Immediately after the centrifugation, the supernatant was decanted and counted in a γ-counter. The concentration in the samples was calculated from individual standard curves. The following plasma concentrations were found, calculated as % of the maximum concentration for the individual compounds (n=2): Table 1

GLP-1(7-37) [reference compound]
plasma concentration, calculated as % of the maximum concentration for the individual compound (2 hours after sc. administration): 9%
plasma concentration, calculated as % of the maximum concentration for the individual compound (4 hours after sc. administration): 1%

From patent EP0944648B1, “GLP-1 DERIVATIVES” (NOVO NORDISK A/S, priority 1996, dated 1998)
